Screening data as filed in PubChem BioAssay.
TDP1 inh = blocks human tyrosyl-DNA phosphodiesterase 1; Q9NUW8; recombinant TDP1, AlphaScreen DNA substrate cleavage; Potency, µM (doses to about 130 µM), most hits filed as inhibitors; actives 0.28% (n = 350,000); further: nearly all actives have a fitted effect of over 40% in size
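Tdp1 1 nM final; 15 min RT w/ cpd; substrate 15 nM, 5 min; beads 10 ug/ml, 10 min; AlphaScreen read. Neg ctrl: no enzyme.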
TDP1 cell noCPT = qHTS for Inhibitors of human tyrosyl-DNA phosphodiesterase 1 (TDP1): qHTS in cells in absence of CPT; DT40 Tdp1-/- hTDP1 cells, no CPT, ATP luminescence, 48 h; Potency, µM (top dose mostly 46.2 µM), hits mostly inhibitors; actives 15% (n = 420,000); further: nearly all actives have a fitted effect of over 55% in size
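Chicken DT40 Tdp1-/- cells stably complemented with human TDP1 were seeded at 400 cells/well with DMSO in place of 20 nM camptothecin. After compound pinning, cells grew at least 48 hr at 37 °C; viability read by CellTiter-Glo luminescence.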
uPA generation = cell surface uPA generation inhibition | cell surface uPA generation assay, qHTS | AID 540303 | Potency, µM (doses to about 38.3 µM), most hits filed as inhibitors | actives 0.31% (n = 330,000); active means well fitted inhibition curve with a large enough effect; inconclusive means small, poorly fitted or top-dose-only effect; inactive means no such curve, though single readings can be large or run the other way; tested in mouse RAW 264.7 cells; further: nearly all actives have a fitted effect of over 55% in size
TDP1 cell CPT = growth inhibition of DT40 Tdp1-/-;hTDP1 cells with camptothecin (screen for TDP1 inhibitors); chicken DT40 Tdp1-/-;hTDP1 cells + 20 nM CPT, ATP luminescence, 48 h; Potency, µM (titrated, usually from 46.2 µM), actives largely listed as inhibitors; actives 12% (n = 420,000); AID 686979; further: nearly all actives have a fitted effect of over 55% in size
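Chicken DT40 Tdp1-/- cells stably complemented with human TDP1 were seeded at 400 cells/well in medium containing 20 nM camptothecin, exposed to pin-transferred compounds, and grown at 37 °C for at least 48 hr. Viability was read as ATP luminescence.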
miR-21 reporter = raises the signal of a miR-21 reporter; HeLa miR-21 FLuc reporter, luciferase, 48 h; Potency, µM (highest dose often 38.3 µM); 340,000 tested, under 10 active; active = well fitted rising curve with a large enough effect; inconclusive = small, poorly fitted or top-dose-only effect; inactive = no such curve, though single readings can be large or run the other way;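 note: miR-21 action dims this reporter so a rising signal means less miR-21 action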
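Using DMEM plus 10% FBS, HeLa miR-21-FLuc cells are incubated with test compounds (final up to about 40uM) for 48 hours; firefly luciferase signal is then imaged following reagent-mediated lysis.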
Hits are given with their value; - = inactive; ? = inconclusive; . = not tested or not shown; [ ] = remark or other dose. In the library only some 16% were active in any assay of this set; here they are far more common. Unless noted, the call rests on the fitted dose curve; in most records, active means well fitted curve in the direction sought with a large enough effect; inconclusive means small, poorly fitted or top-dose-only effect, or another doubt; inactive means no such curve, though single readings can be large; an effect the other way counts as inactive or inconclusive.

SMILES	TDP1 inh	TDP1 cell noCPT	uPA generation	TDP1 cell CPT	miR-21 reporter
Cc1cc(C)nc(N/N=C/C2=C(N3CCOCC3)C(=C\c3ccc(Cl)cc3)/CC2)n1	-	16µM	-	23µM	-
COC(=O)c1ccc(Oc2ccc(S(=O)(=O)N3CCCCC3)cc2N)cc1	.	16µM	-	?	-
Nc1cc(S(=O)(=O)N2CCCCC2)ccc1Oc1ccc(Cl)cc1	-	8.2µM	-	?	-
Cc1c(C(=O)N2CCCC2)oc2c1-c1nn(CC(=O)NCc3cccc(F)c3)cc1CC2	-	?	.	?	-
O=C(NCc1ccc(F)c(F)c1)c1ccc(-c2ccc(F)c(F)c2)c2ccoc12	.	21µM	.	18µM	.
O=C(NCC1CCOCC1)c1ccc(-c2ccc(F)c(F)c2)c2ccoc12	.	10µM	.	12µM	.
O=C(NCc1ccccc1)c1ccc(-c2cn[nH]c2)c2ccoc12	.	?	.	-	.
O=C(NCc1cccs1)c1ccc(-c2ccc(F)c(F)c2)c2ccoc12	.	10µM	.	12µM	.
COc1ccc(-c2coc3c(OC)c(OC)cc(O)c3c2=O)cc1	-	?	.	?	.
O=C(CCC(=O)N1CC2CCCN2c2ccccc21)NCc1ccccc1F (centres undefined)	-	18µM	.	12µM	-
O=C(CCC(=O)N1CC2CCCN2c2ccccc21)NCc1ccc(F)cc1 (centres undefined)	-	?	.	?	-
COc1cccc2c1Oc1ncccc1N(C(=O)CCC(=O)NCc1ccccc1F)C2	-	-	-	-	-
Cc1ccccc1CNC(=O)CCC(=O)N1CC2CCCN2c2ccccc21 (centres undefined)	-	23µM	.	18µM	-
Cc1ccc(CNC(=O)CCC(=O)N2CC3CCCN3c3ccccc32)cc1 (centres undefined)	-	18µM	.	5.2µM	-
Cc1ccc(Nc2ccc(C(F)(F)F)cc2[N+](=O)[O-])cc1	-	-	-	-	-
Cc1ccc(NC2=C(c3ccc(C(F)(F)F)cc3)C(=O)c3ccccc32)cc1C	-[12.3 µM]	?	.	21µM	-
COc1ccc(N2C(=O)CC(N3CCN(C4CCc5ccccc5C4)CC3)C2=O)cc1 (centres undefined)	-	-	-	-	-
O=C(Nc1nc(-c2ccc([N+](=O)[O-])cc2)cs1)C1=COCCO1	.	9.2µM	.	-	.
O=C(Nc1nc(-c2ccc(-c3ccccc3)cc2)cs1)C1=COCCO1	-	?	-	-	-
O=C(NC(NC(=O)c1c(F)cccc1F)c1ccc([N+](=O)[O-])cc1)c1c(F)cccc1F	.	-	-	-	-
O=C(Nc1nc(-c2ccc([N+](=O)[O-])cc2)cs1)c1c(F)cccc1F	-	4.6µM	-	-	-
O=C(NC(=S)Nc1nc(-c2cccc([N+](=O)[O-])c2)cs1)c1cc(Cl)ccc1Cl	-	16µM	-	-	-
Cc1cc(C)c(-c2csc(NC(=O)C3=COCCO3)n2)cc1C	-	21µM	-	23µM	.
O=[N+]([O-])c1cccc(NC(=S)Nc2nc(-c3ccc(Cl)cc3Cl)cs2)c1	-	.	.	.	-
Cc1cc(C)c(S(=O)(=O)Nc2ccc(-c3ccc(N4CCCCCC4)nn3)cc2)c(C)c1	-	?	.	?	-
SMILES	TDP1 inh	TDP1 cell noCPT	uPA generation	TDP1 cell CPT	miR-21 reporter
COC(=O)c1cc2sc(Cl)cc2n1CC(=O)Nc1cc(C)cc(C)c1	-	?	.	21µM	-
CCc1cccc(NC(=O)Cn2c(C(=O)OC)cc3sc(Cl)cc32)c1	-	?	.	?	-
O=C(CSc1nnc(-c2ccc3c(c2)OCO3)o1)Nc1ncc(Cl)cc1Cl	-	21µM	?	21µM	-
CC(=O)CSc1nnc(-c2ccc3c(c2)OCO3)o1	-	-	-	-	-
Cc1nc(CCNC(=O)C2CCC(=O)N(Cc3ccc(Cl)cc3)C2)sc1C (centres undefined)	.	-	-	-	-
COc1ccc(/C(C#N)=C/c2cccnc2)cc1	.	.	.	.	-
COc1ccc(C(C#N)=Cc2ccc(N(C)CCC#N)cc2)cc1	.	26µM	.	23µM	.
CN(C)c1ccc(/C=C(\C#N)c2ccccc2)cc1	-	2.6µM	0.89µM	2.6µM	-
CN(C)c1cccc(/C=C(\C#N)c2ccccc2)c1	-	2.3µM	?	2.9µM	-
CCc1ccc(NC(=O)C(=O)NCCN2CCN(S(=O)(=O)c3ccccc3)CC2)cc1	.	-	-	-	-
CC1CC(C)CN(S(=O)(=O)c2ccc(F)c(C(=O)NC3CCCCC3C)c2)C1 (centres undefined)	.	-	.	?	.
Cc1nn(CCN)c(C)c1Cl	-	-	-	-	-
O=C(c1cc(F)c(F)cc1Cl)N1CCN(S(=O)(=O)c2cccs2)CC1	-	-	-	-	.
O=S(=O)(NCCCCCCc1ccccc1)c1cccc2c(Cl)cccc12	.	?	.	21µM	.
NCCCCCCCCCCNS(=O)(=O)c1cccc2c(Cl)cccc12	-	13µM	.	?	.
CSc1cccc(NS(=O)(=O)c2ccc3[nH]cc(C(=O)N4CCCC4)c(=O)c3c2)c1	-	-	.	-	-
CCS(=O)(=O)N1Cc2ccccc2CC1C(=O)Nc1cccc(OC)c1 (centres undefined)	.	-	-	-	-
CCC(=NCCc1c(C)[nH]c2ccc(OC(F)(F)F)cc12)C1=C(O)CC(c2ccccc2)CC1=O (centres undefined)	-	5.8µM	-	4.6µM	-
CCCCC(=NCCc1c(C)[nH]c2ccc(OC)cc12)C1=C(O)CC(c2ccccc2)CC1=O (centres undefined)	-	4.1µM	-	4.1µM	-
CCC(=NCCc1c(C)[nH]c2ccccc12)C1=C(O)CC(c2ccccc2)CC1=O (centres undefined)	-	2.9µM	?	4.1µM	-
CCC(=NC)C1=C(O)CC(c2ccccc2)CC1=O (centres undefined)	.	-	-	-	-
CC(=NCCc1c(C)[nH]c2ccc(OCc3ccccc3)cc12)C1=C(O)CC(c2ccccc2)CC1=O (centres undefined)	-	?	-	?	-
Fc1ccc(NC(=S)Nc2cccnc2)cc1Cl	-	23µM	-	?	-
N#CCc1ccc(NC(=O)Nc2cccc(Cl)c2)cc1	-	?	-	16µM	-
O=C(Nc1ccc(F)c(Cl)c1)c1cccnc1	.	?	-	?	-
SMILES	TDP1 inh	TDP1 cell noCPT	uPA generation	TDP1 cell CPT	miR-21 reporter
O=C(Nc1cccnc1)Nc1ccccc1Cl	-	-	.	?	-
O=C(Nc1cccc(Cl)c1)Nc1cccc(Cl)c1	-	12µM	-	15µM	-
O=C(Nc1cccnc1)Nc1cc(Cl)cc(Cl)c1	-	23µM	-	10µM	?
CC(=O)Nc1ccc(NC(=O)Nc2ccccc2)cc1	.	-	-	-	-
COC(=O)c1cc(NC(=O)Nc2cccc(Cl)c2)ccc1Cl	-	18µM	?	16µM	-
O=C(NCCNC(=O)c1cc(OCC(F)(F)F)ccc1OCC(F)(F)F)Nc1cccc(C(F)(F)F)c1	-	?	-	?	-
